Laboratory results: patent US9642869B2, “Boronic acid derivatives and therapeutic uses thereof” (Rempex Pharmaceuticals, Inc., priority 2013, dated 2017)

tested on: SHV-12 KP1010; settings: not given

Which “TIG MPC4 SHV-12 KP1010” value does the source give for `O=C(Cc1cccs1)N[C@H]1Cc2cccc(C(=O)O)c2OB1O` [CPD A, reference compound] here?
The value was “X (key: X: MIC of less than 1 μg/mL; Y: MIC of 1 μg/mL to 10 μg/mL; Z: MIC of greater than 10 μg/mL)”.

How did the “TIG MPC4 SHV-12 KP1010” value turn out when `O=C(COCc1ccccc1)N[C@H]1Cc2cccc(C(=O)O)c2OB1O` [CPD B, reference compound] was run?
Its value is “Y (key: X: MIC of less than 1 μg/mL; Y: MIC of 1 μg/mL to 10 μg/mL; Z: MIC of greater than 10 μg/mL)”.

With `Cn1nnnc1SCC(=O)N[C@H]1Cc2cccc(C(=O)O)c2OB1O` [Compound 2, (R)-2-hydroxy-3-(2-(1-methyl-1H-tetrazol-5-ylthio)acetamido)-3,4-dihydro-2H-benzo[e][1,2]oxaborinine-8-carboxylic acid] as the compound, how does the “TIG MPC4 SHV-12 KP1010” value read?
Its value is “X (key: X: MIC of less than 1 μg/mL; Y: MIC of 1 μg/mL to 10 μg/mL; Z: MIC of greater than 10 μg/mL)”.

`O=C(CSC(F)F)N[C@H]1Cc2cccc(C(=O)O)c2OB1O` [Compound 3, (R)-3-(2-(difluoromethylthio)acetamido)-2-hydroxy-3,4-dihydro-2H-benzo[e][1,2]oxaborinine-8-carboxylic acid] was tested. Which “TIG MPC4 SHV-12 KP1010” value did it give?
Its value is “X (key: X: MIC of less than 1 μg/mL; Y: MIC of 1 μg/mL to 10 μg/mL; Z: MIC of greater than 10 μg/mL)”.

How did the “TIG MPC4 SHV-12 KP1010” value turn out when `O=CN[C@H]1Cc2cccc(C(=O)O)c2OB1O` [Compound 4, (R)-3-formamido-2-hydroxy-3,4-dihydro-2H-benzo[e][1,2]oxaborinine-8-carboxylic acid] was run?
Its value is “X (key: X: MIC of less than 1 μg/mL; Y: MIC of 1 μg/mL to 10 μg/mL; Z: MIC of greater than 10 μg/mL)”.

How did the “TIG MPC4 SHV-12 KP1010” value turn out when `Nc1nnc(SCC(=O)N[C@H]2Cc3cccc(C(=O)O)c3OB2O)s1` [Compound 5, (R)-3-(2-(5-amino-1,3,4-thiadiazol-2-ylthio)acetamido)-2-hydroxy-3,4-dihydro-2H-benzo[e][1,2]oxaborinine-8-carboxylic acid] was run?
Its value is “X (key: X: MIC of less than 1 μg/mL; Y: MIC of 1 μg/mL to 10 μg/mL; Z: MIC of greater than 10 μg/mL)”.

Which “TIG MPC4 SHV-12 KP1010” value does the source give for `NC(=O)N[C@H]1Cc2cccc(C(=O)O)c2OB1O` [Compound 6, (R)-2-hydroxy-3-ureido-3,4-dihydro-2H-benzo[e][1,2]oxaborinine-8-carboxylic acid] here?
Its value is “Y (key: X: MIC of less than 1 μg/mL; Y: MIC of 1 μg/mL to 10 μg/mL; Z: MIC of greater than 10 μg/mL)”.

With `O=C(CSc1nncs1)N[C@H]1Cc2cccc(C(=O)O)c2OB1O` [Compound 7, (R)-3-(2-(1,3,4-thiadiazol-2-ylthio)acetamido)-2-hydroxy-3,4-dihydro-2H-benzo[e][1,2]oxaborinine-8-carboxylic acid] as the compound, how does the “TIG MPC4 SHV-12 KP1010” value read?
The value was “X (key: X: MIC of less than 1 μg/mL; Y: MIC of 1 μg/mL to 10 μg/mL; Z: MIC of greater than 10 μg/mL)”.

Which “TIG MPC4 SHV-12 KP1010” value does the source give for `[N-]=[N+]=NCC(=O)N[C@H]1Cc2cccc(C(=O)O)c2OB1O` [Compound 8, (R)-3-(2-azidoacetamido)-2-hydroxy-3,4-dihydro-2H-benzo[e][1,2]oxaborinine-8-carboxylic acid] here?
Its value is “X (key: X: MIC of less than 1 μg/mL; Y: MIC of 1 μg/mL to 10 μg/mL; Z: MIC of greater than 10 μg/mL)”.

`CN(C)C(=O)C(=O)N[C@H]1Cc2cccc(C(=O)O)c2OB1O` [Compound 9, (R)-3-(2-(dimethylamino)-2-oxoacetamido)-2-hydroxy-3,4-dihydro-2H-benzo[e][1,2]oxaborinine-8-carboxylic acid] was tested. Which “TIG MPC4 SHV-12 KP1010” value did it give?
Its value is “Y (key: X: MIC of less than 1 μg/mL; Y: MIC of 1 μg/mL to 10 μg/mL; Z: MIC of greater than 10 μg/mL)”.

How did the “TIG MPC4 SHV-12 KP1010” value turn out when `CN(C)C(=O)CC(=O)N[C@H]1Cc2cccc(C(=O)O)c2OB1O` [Compound 10, (R)-3-(3-(dimethylamino)-3-oxopropanamido)-2-hydroxy-3,4-dihydro-2H-benzo[e][1,2]oxaborinine-8-carboxylic acid] was run?
The value was “X (key: X: MIC of less than 1 μg/mL; Y: MIC of 1 μg/mL to 10 μg/mL; Z: MIC of greater than 10 μg/mL)”.

For `CSC(=O)N[C@H]1Cc2cccc(C(=O)O)c2OB1O` [Compound 11, (R)-2-hydroxy-3-(methylthiocarbonylamino)-3,4-dihydro-2H-benzo[e][1,2]oxaborinine-8-carboxylic acid], which “TIG MPC4 SHV-12 KP1010” value is on record?
The value was “X (key: X: MIC of less than 1 μg/mL; Y: MIC of 1 μg/mL to 10 μg/mL; Z: MIC of greater than 10 μg/mL)”.

Which “TIG MPC4 SHV-12 KP1010” value does the source give for `O=C(N[C@H]1Cc2cccc(C(=O)O)c2OB1O)c1cccnc1` [Compound 12, (R)-2-hydroxy-3-(nicotinamido)-3,4-dihydro-2H-benzo[e][1,2]oxaborinine-8-carboxylic acid] here?
Its value is “X (key: X: MIC of less than 1 μg/mL; Y: MIC of 1 μg/mL to 10 μg/mL; Z: MIC of greater than 10 μg/mL)”.

How did the “TIG MPC4 SHV-12 KP1010” value turn out when `CSCC(=O)N[C@H]1Cc2cccc(C(=O)O)c2OB1O` [Compound 13, (R)-2-hydroxy-3-(2-(methylthio)acetamido)-3,4-dihydro-2H-benzo[e][1,2]oxaborinine-8-carboxylic acid] was run?
Its value is “X (key: X: MIC of less than 1 μg/mL; Y: MIC of 1 μg/mL to 10 μg/mL; Z: MIC of greater than 10 μg/mL)”.

With `O=C(N[C@H]1Cc2cccc(C(=O)O)c2OB1O)c1cncc(F)c1` [Compound 14, (R)-3-(5-fluoronicotinamido)-2-hydroxy-3,4-dihydro-2H-benzo[e][1,2]oxaborinine-8-carboxylic acid] as the compound, how does the “TIG MPC4 SHV-12 KP1010” value read?
Its value is “X (key: X: MIC of less than 1 μg/mL; Y: MIC of 1 μg/mL to 10 μg/mL; Z: MIC of greater than 10 μg/mL)”.

`O=C(N[C@H]1Cc2cccc(C(=O)O)c2OB1O)c1cncs1` [Compound 15, (R)-2-hydroxy-3-(thiazole-5-carboxamido)-3,4-dihydro-2H-benzo[e][1,2]oxaborinine-8-carboxylic acid] was tested. Which “TIG MPC4 SHV-12 KP1010” value did it give?
The value was “X (key: X: MIC of less than 1 μg/mL; Y: MIC of 1 μg/mL to 10 μg/mL; Z: MIC of greater than 10 μg/mL)”.

How did the “TIG MPC4 SHV-12 KP1010” value turn out when `NC(=O)CC(=O)N[C@H]1Cc2cccc(C(=O)O)c2OB1O` [Compound 16, (R)-3-(3-amino-3-oxopropanamido)-2-hydroxy-3,4-dihydro-2H-benzo[e][1,2]oxaborinine-8-carboxylic acid] was run?
Its value is “X (key: X: MIC of less than 1 μg/mL; Y: MIC of 1 μg/mL to 10 μg/mL; Z: MIC of greater than 10 μg/mL)”.

`NC(=O)C(=O)N[C@H]1Cc2cccc(C(=O)O)c2OB1O` [Compound 17, (R)-3-(2-amino-2-oxoacetamido)-2-hydroxy-3,4-dihydro-2H-benzo[e][1,2]oxaborinine-8-carboxylic acid] was tested. Which “TIG MPC4 SHV-12 KP1010” value did it give?
Its value is “Y (key: X: MIC of less than 1 μg/mL; Y: MIC of 1 μg/mL to 10 μg/mL; Z: MIC of greater than 10 μg/mL)”.

`O=C(N[C@H]1Cc2cccc(C(=O)O)c2OB1O)c1cncnc1` [Compound 18, (R)-2-hydroxy-3-(pyrimidine-5-carboxamido)-3,4-dihydro-2H-benzo[e][1,2]oxaborinine-8-carboxylic acid] was tested. Which “TIG MPC4 SHV-12 KP1010” value did it give?
Its value is “X (key: X: MIC of less than 1 μg/mL; Y: MIC of 1 μg/mL to 10 μg/mL; Z: MIC of greater than 10 μg/mL)”.

For `Nc1nnc(C(=O)N[C@H]2Cc3cccc(C(=O)O)c3OB2O)s1` [Compound 19, (R)-3-(5-amino-1,3,4-thiadiazole-2-carboxamido)-2-hydroxy-3,4-dihydro-2H-benzo[e][1,2]oxaborinine-8-carboxylic acid], which “TIG MPC4 SHV-12 KP1010” value is on record?
The value was “X (key: X: MIC of less than 1 μg/mL; Y: MIC of 1 μg/mL to 10 μg/mL; Z: MIC of greater than 10 μg/mL)”.

For `Nc1nnc(C(=O)N[C@H]2Cc3cccc(C(=O)O)c3OB2O)o1` [Compound 20, (R)-3-(5-amino-1,3,4-oxadiazole-2-carboxamido)-2-hydroxy-3,4-dihydro-2H-benzo[e][1,2]oxaborinine-8-carboxylic acid], which “TIG MPC4 SHV-12 KP1010” value is on record?
The value was “X (key: X: MIC of less than 1 μg/mL; Y: MIC of 1 μg/mL to 10 μg/mL; Z: MIC of greater than 10 μg/mL)”.

With `CNC(=O)CC(=O)N[C@H]1Cc2cccc(C(=O)O)c2OB1O` [Compound 21, (R)-2-hydroxy-3-(3-(methylamino)-3-oxopropanamido)-3,4-dihydro-2H-benzo[e][1,2]oxaborinine-8-carboxylic acid] as the compound, how does the “TIG MPC4 SHV-12 KP1010” value read?
Its value is “X (key: X: MIC of less than 1 μg/mL; Y: MIC of 1 μg/mL to 10 μg/mL; Z: MIC of greater than 10 μg/mL)”.

Which “TIG MPC4 SHV-12 KP1010” value does the source give for `O=C(CSC1CNC1)N[C@H]1Cc2cccc(C(=O)O)c2OB1O` [Compound 22, (R)-3-(2-(azetidin-3-ylthio)acetamido)-2-hydroxy-3,4-dihydro-2H-benzo[e][1,2]oxaborinine-8-carboxylic acid] here?
The value was “X (key: X: MIC of less than 1 μg/mL; Y: MIC of 1 μg/mL to 10 μg/mL; Z: MIC of greater than 10 μg/mL)”.

same assay, conditions: minimum BLI concentration inhibiting growth with tigemonam at 4 μg/mL

For `O=C(CSC(F)(F)F)N[C@H]1Cc2cccc(C(=O)O)c2OB1O` [Compound 1, (R)-2-hydroxy-3-(2-(trifluoromethylthio)acetamido)-3,4-dihydro-2H-benzo[e][1,2]oxaborinine-8-carboxylic acid], which “TIG MPC4 SHV-12 KP1010” value is on record?
Its value is “X (MIC of less than 1 μg/mL)”.
